Results taken from patent US7348336B2 (Sanofi-Aventis Deutschland GmbH, priority 2000, dated 2008).

The chains behind the UniProt entries cited, without tags or fusion partners. Where a name states a change or a piece, a line headed by the entry shows the natural chain unless it says otherwise.
UniProt O14920: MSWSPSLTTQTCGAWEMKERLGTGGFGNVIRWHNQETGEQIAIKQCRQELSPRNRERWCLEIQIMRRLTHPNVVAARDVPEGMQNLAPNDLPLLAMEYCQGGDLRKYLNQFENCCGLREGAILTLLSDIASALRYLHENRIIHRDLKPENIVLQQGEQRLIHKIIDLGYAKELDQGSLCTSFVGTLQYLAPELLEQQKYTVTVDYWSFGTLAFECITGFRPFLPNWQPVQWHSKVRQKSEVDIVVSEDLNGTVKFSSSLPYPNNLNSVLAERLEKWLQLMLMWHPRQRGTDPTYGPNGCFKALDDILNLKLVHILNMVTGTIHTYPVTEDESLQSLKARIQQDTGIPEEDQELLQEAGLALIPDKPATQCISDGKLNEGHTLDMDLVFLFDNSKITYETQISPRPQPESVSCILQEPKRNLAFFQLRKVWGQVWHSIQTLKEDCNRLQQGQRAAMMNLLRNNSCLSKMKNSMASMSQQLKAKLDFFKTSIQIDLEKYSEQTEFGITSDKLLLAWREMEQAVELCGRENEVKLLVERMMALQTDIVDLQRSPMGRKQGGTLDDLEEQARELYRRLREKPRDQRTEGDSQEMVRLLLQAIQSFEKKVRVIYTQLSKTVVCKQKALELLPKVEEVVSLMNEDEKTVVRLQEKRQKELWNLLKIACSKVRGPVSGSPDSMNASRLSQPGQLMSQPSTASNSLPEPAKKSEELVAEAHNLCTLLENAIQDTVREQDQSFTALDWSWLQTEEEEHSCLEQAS
UniProt O15111: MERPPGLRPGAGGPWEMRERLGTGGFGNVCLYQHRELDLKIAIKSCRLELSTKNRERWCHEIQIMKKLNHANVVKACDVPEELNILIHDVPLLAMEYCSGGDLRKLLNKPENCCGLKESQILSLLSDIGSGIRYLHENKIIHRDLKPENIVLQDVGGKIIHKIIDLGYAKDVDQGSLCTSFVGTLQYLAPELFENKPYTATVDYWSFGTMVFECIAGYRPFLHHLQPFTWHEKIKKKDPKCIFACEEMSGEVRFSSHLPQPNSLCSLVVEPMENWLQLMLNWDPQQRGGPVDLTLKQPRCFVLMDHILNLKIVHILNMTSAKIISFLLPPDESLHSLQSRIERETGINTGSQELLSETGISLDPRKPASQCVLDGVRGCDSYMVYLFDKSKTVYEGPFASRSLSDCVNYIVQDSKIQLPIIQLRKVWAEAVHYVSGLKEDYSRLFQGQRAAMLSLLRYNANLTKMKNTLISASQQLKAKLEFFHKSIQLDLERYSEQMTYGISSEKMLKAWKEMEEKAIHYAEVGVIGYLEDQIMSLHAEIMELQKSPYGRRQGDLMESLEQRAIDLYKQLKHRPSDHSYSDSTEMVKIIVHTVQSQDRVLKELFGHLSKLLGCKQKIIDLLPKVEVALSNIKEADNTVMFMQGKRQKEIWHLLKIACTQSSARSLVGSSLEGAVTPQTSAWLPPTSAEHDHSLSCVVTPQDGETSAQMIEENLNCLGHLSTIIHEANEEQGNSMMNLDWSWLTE

Target: T1, IκBα-kinase complex (Homo sapiens, UniProt O14920+O15111)
T1 construct: endogenous in cells; host or cells: HeLa S3 cell extract, S100 fraction; ammonium sulfate precipitation and Superose-6 size exclusion
Assay: IkB-Kinase ELISA;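 also: substrate phosphopeptide captured on Protein-A plates, detected with Streptavidin-HRP and TMB absorbance at 450 nm, activity read from a synthetic phosphopeptide standard curve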
Type: biochemical
Settings: activated IκBα kinase complex from HeLa S3 cell extracts

IC50: 300 nM
SMILES: CC(=O)Nc1cc(Cl)cc2c1[nH]c1cnccc12 [Example 16, 9-amino-7-chloro-β-carboline trifuoroacetate]
